Literature values, collected in US20260265329A1, “POLYPEPTIDE AND DERIVATIVE THEREOF, COMPOSITION, AND USE THEREOF” (HANGZHOU SCIWIND BIOSCIENCES CO., LTD., priority 2023, published 2026).

Details: in vivo, background statement; cited from earlier work

With `CC[C@H](C)[C@H](NC(=O)[C@@H]1CCCN1C(=O)CNC(=O)[C@H](Cc1ccccc1)NC(=O)[C@H](CC(N)=O)NC(=O)[C@H](CC(N)=O)NC(=O)[C@H](CO)NC(=O)[C@H](CO)NC(=O)[C@H](Cc1c[nH]cn1)NC(=O)[C@@H](NC(=O)[C@H](CC(C)C)NC(=O)[C@H](Cc1ccccc1)NC(=O)[C@H](CC(N)=O)NC(=O)[C@H](C)NC(=O)[C@H](CC(C)C)NC(=O)[C@H](CCCNC(=N)N)NC(=O)[C@H](CCC(N)=O)NC(=O)[C@@H](NC(=O)[C@H](C)NC(=O)[C@@H]1CSSC[C@H](NC(=O)[C@@H](N)CCCCN)C(=O)N[C@@H](CC(N)=O)C(=O)N[C@@H]([C@@H](C)O)C(=O)N[C@@H](C)C(=O)N[C@@H]([C@@H](C)O)C(=O)N1)[C@@H](C)O)C(C)C)C(=O)N[C@@H](CC(C)C)C(=O)N1CCC[C@H]1C(=O)N1CCC[C@H]1C(=O)N[C@H](C(=O)N[C@@H](CC(N)=O)C(=O)N[C@H](C(=O)NCC(=O)N[C@@H](CO)C(=O)N[C@@H](CC(N)=O)C(=O)N[C@H](C(=O)N[C@@H](Cc1ccc(O)cc1)C(N)=O)[C@@H](C)O)C(C)C)[C@@H](C)O` [Pramlintide] as the compound, how does the half-life read?
Its half-life is “less than an hour”.
